Target: Neuronal acetylcholine receptor subunit alpha-7 (Rattus norvegicus, UniProt Q05941)

In the case of CNC(=O)OCCC(C)N(C)C (stereo unspecified), the Ki is reported as greater than 1 mM.

Source: BindingDB's records for 18989912, “Novel acetylcholine and carbamoylcholine analogues: development of a functionally selective alpha4beta2 nicotinic acetylcholine receptor agonist” (2009)
